Experimental findings from patent US11008301B2, “Piperidinone formyl peptide 2 receptor agonists” (BRISTOL-MYERS SQUIBB COMPANY, priority 2017, dated 2021) are described below.

By UniProt entry, the sequences of proteins in these tests, tags left out.
UniProt P25090, whole entry: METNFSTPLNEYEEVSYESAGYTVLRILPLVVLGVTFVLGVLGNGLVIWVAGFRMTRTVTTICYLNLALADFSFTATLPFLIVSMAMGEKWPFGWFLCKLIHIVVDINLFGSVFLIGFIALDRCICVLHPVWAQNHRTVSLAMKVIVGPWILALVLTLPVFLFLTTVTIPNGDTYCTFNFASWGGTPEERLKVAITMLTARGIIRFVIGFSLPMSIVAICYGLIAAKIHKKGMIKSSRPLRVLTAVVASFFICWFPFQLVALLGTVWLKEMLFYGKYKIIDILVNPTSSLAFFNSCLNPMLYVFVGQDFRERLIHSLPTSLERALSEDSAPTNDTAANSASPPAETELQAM

Structures are written as SMILES. pEC50: −log10 of the molar value. Where only a bound is given, the exact number is not on record here.

In this assay the target is human FPR2 (Homo sapiens (Human), UniProt P25090). As to the kind of experiment: FPR2 cyclic adenosine monophosphate (cAMP) assay. The following applies: read-out: hFPR2 agonist activity EC50 (hFPR2 Assay), CHO cells overexpressing human FPR2. As to the method: FPR2 and FPR1 Cyclic Adenosine Monophosphate (cAMP) Assays. A mixture of forskolin (5 μM final for FPR2 or 10 μM final for FPR1) and IBMX (200 μM final) were added to 384-well Proxiplates (Perkin-Elmer) pre-dotted with test compounds in DMSO (1% final) at final concentrations in the range of 1.7 nM to 100 μM. Chinese Hamster Ovary cells (CHO) overexpressing human FPR1 or human FPR2 receptors were cultured in F-12 (Ham's) medium supplemented with 10% qualified FBS, 250 μg/ml zeocin and 300 μg/ml hygromycin (Life Technologies). Reactions were initiated by adding 2,000 human FPR2 cells per well or 4,000 human FPR1 cells per well in Dulbecco's PBS (with calcium and magnesium) (Life Technologies) supplemented with 0.1% BSA (Perkin-Elmer). The reaction mixtures were incubated for 30 min at room temperature. The level of intracellular cAMP was determined using the HTRF HiRange cAMP assay reagent kit (Cisbio) according to manufacturer's instruction. […] After a 1-h room temperature incubation, time-resolved fluorescence intensity was measured using the Envision (Perkin-Elmer) at 400 nm excitation and dual emission at 590 nm and 665 nm. […] The potency and activity of a compound to inhibit cAMP production was then determined by fitting to a 4-parametric logistic equation from a plot of cAMP level versus compound concentrations.

On to `CS(=O)(=O)C1CCN(c2ccc(N3CCC[C@@H](NC(=O)Nc4ccc(Cl)cc4F)C3=O)c(C3CC3)c2)C1` (some centres unmarked), for which the pEC50 is not below 8.00. In the case of `O=C(Nc1ccc(C(F)(F)F)cc1)N[C@@H]1CCCN(c2ccc(N3C4CCC3COC4)cc2)C1=O` it was not below 8.00.
